## scFv variants of Ab-14 (light chain) against a SARS-CoV-2 spike peptide

Values reported by Li et al. 2023, doi:10.1038/s41467-023-39022-2 (FLAb copy).

All variants were tested on one target, the spike HR2 peptide PDVDLGDISGINAS (SARS-CoV-2).

Each scFv is VH, the linker GGGGSGGGGSGGGGS, VL, as in the parent Ab-14, and differs from it in the CDRs of the light chain only.
VH: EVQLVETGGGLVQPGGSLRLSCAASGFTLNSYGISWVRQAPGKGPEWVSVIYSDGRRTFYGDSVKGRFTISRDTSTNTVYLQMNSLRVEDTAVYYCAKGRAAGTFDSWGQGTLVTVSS
VL: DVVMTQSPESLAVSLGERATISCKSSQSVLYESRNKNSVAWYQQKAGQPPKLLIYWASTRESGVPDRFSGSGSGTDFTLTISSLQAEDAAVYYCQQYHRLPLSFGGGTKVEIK

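Phage display of a naive human antibody library on the peptide gave the parent. These sequences belong to a second round, designed from the earlier measurements on random variants of the parent. Group labels follow the data file (Ctrl: baseline library sampled from a position-specific scoring matrix, with some repeated check sequences; GP: Gaussian process model; HC: hill climbing; Gen: genetic algorithm; Gibbs: Gibbs sampling; a sequence that several methods proposed may carry one label only). Affinity was read by AlphaSeq, a pooled yeast mating assay with surface-displayed partners. Binding brings cells together so that they mate, and sequencing counts the barcode pairs among the diploids. Scores were corrected for input abundance and mapped to Kd with protein pairs of known affinity run in the same pool. The assay was run in six technical replicates.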

Changes read parent residue, position, new residue, counted from the first residue of the VL shown. Variants here have at most six changes. Scale: log10 of Kd in nM, estimated from mating counts; low values are strong binders. "ND" marks a missing value. The strain was present, yet no cells mated with the target were sequenced in that replicate, which points to weak or no binding. Values of this round are not directly comparable with the first-round values of the same sequences.

changes	group	log10 Kd, replicates	empty controls
V29C V39L W56D T59C	Ctrl	1.08 / 1.65 / 0.81 / 0.82 / 1.52 / 1.09	3/18 (2.37)
S33G R34I A57S R60P	Ctrl	ND / ND / ND / ND / ND / ND	0/18
S25C L30K S33H W56A E61S	Ctrl	2.25 / ND / 1.93 / 2.48 / 3.09 / ND	0/18
S25T Q27Y H98A	Ctrl	1.43 / 2.28 / 1.47 / 1.82 / 1.77 / 2.48	0/18
S25L V29Y W56D	GP_Gen	ND / ND / ND / 1.19 / 1.80 / 2.41	1/18 (1.67)
S25F S28W N35T W56D	GP_HC	0.23 / -0.09 / -0.05 / -0.31 / -0.11 / -0.20	0/18
S25L V29G W56N T59Q	GP_Gen	1.14 / 0.72 / 0.43 / 0.56 / 0.64 / 0.77	1/18 (2.44)
S25V S28G Y31D S62G	GP_Gibbs	1.18 / 0.90 / 1.06 / 0.86 / 0.96 / 1.32	0/18
Q27S E32I	Ctrl	0.76 / -0.20 / -0.12 / 1.28 / 0.35 / 0.52	0/18
V29Q W56N T59Q	GP_Gen	ND / 2.08 / ND / ND / 1.80 / ND	0/18
Q27N V29D L30F	Ctrl	0.98 / 1.66 / 0.19 / 0.48 / 1.58 / 0.84	0/18
S25I R34A K36H Y97P S103K	Ctrl	ND / ND / ND / ND / ND / ND	0/18
S25L V29F L30D W56N	GP_Gen	-0.03 / -0.04 / -0.23 / -0.49 / -0.51 / -0.11	1/18 (2.20)
S26M L30D W56N A57G S58Q S62E	GP_Gibbs	0.56 / 0.23 / 0.18 / -0.15 / -0.10 / 0.39	1/18 (2.24)
Y31K Y97Q	Ctrl	ND / ND / ND / ND / ND / ND	0/18
S26E Q27I Y31Q K36Q W56E S62V	GP_Gibbs	0.79 / 0.40 / 0.26 / 0.42 / 0.42 / 0.62	0/18
S26H E32V K36T S103D	Ctrl	ND / ND / ND / ND / ND / ND	0/18
S25L S26Q V29E W56Q E61L	GP_Gen	0.99 / 0.67 / 0.43 / 0.69 / 0.86 / 0.92	0/18
S26M S58N R99I	Ctrl	ND / ND / ND / ND / ND / ND	0/18
S25M Y31M W56E	GP_Gen	0.12 / -0.08 / -0.24 / -0.21 / -0.16 / -0.16	1/18 (2.48)
Q27R L30T E32G K36G Q96L	Ctrl	ND / ND / ND / ND / ND / ND	1/18 (2.03)
S38W A57C E61V S62Q Q95F	Ctrl	ND / ND / ND / ND / ND / ND	0/18
S25V W56N Y97M	GP_HC	0.33 / 0.43 / 0.27 / 0.24 / 0.72 / 0.76	1/18 (2.32)
S25V S26E V29Q W56N T59Q	GP_Gen	-0.01 / -0.07 / -0.24 / -0.18 / -0.14 / 0.06	1/18 (2.08)
V29W E32F W56N	Ctrl	ND / 1.60 / ND / ND / 0.90 / 1.02	0/18
S28G R34T W56Q H98V	Ctrl	0.08 / 0.35 / 0.11 / 0.32 / 0.19 / 0.48	1/18 (2.19)
L30R W56M S62F Q95Y Y97V	Ctrl	ND / ND / ND / ND / ND / ND	0/18
S25L S26Q V29Q W56S T59Q	GP_Gen	-0.29 / -0.20 / -0.21 / 0.02 / 0.16 / 0.26	0/18
S25L S26D V29G W56G	GP_HC	-0.21 / -0.32 / -0.38 / -0.48 / -0.42 / -0.11	0/18
S25V S26Y V29N W56N	GP_Gen	-0.09 / -0.16 / -0.15 / -0.25 / -0.14 / 0.01	1/18 (2.98)
S25L S26P V29W W56G	GP_Gen	-0.38 / -0.65 / -0.65 / -0.68 / -0.65 / -0.36	0/18
S25M S26L V29H W56N S62W	GP_Gibbs	0.57 / 0.05 / 0.25 / -0.05 / 0.09 / 0.02	2/18 (2.84)
N35K	Ctrl	ND / 4.03 / 1.57 / ND / 2.63 / ND	0/18
S25L S26P W56N S62V	GP_Gen	-0.03 / -0.27 / -0.28 / -0.43 / -0.19 / -0.08	3/18 (2.90)
Q27M L30T	Ctrl	1.88 / 2.05 / 0.91 / 1.52 / 1.19 / 2.01	0/18
S25Y V29T E32D L100D	Ctrl	1.41 / 2.34 / ND / 1.88 / 1.80 / 1.47	1/18 (1.76)
S25L S33W Y97P	Ctrl	ND / ND / ND / ND / ND / ND	0/18
S25L S26A V29D W56E	GP_Gen	-0.16 / -0.36 / -0.32 / -0.34 / -0.22 / -0.13	0/18
S25L Q27M W56N T59Q	GP_Gen	-0.21 / -0.45 / -0.34 / -0.45 / -0.43 / -0.25	2/18 (2.73)

The first 4 variants above that were never detected:

changes	group	log10 Kd, replicates	empty controls
S33G R34I A57S R60P	Ctrl	ND / ND / ND / ND / ND / ND	0/18
S25I R34A K36H Y97P S103K	Ctrl	ND / ND / ND / ND / ND / ND	0/18
Y31K Y97Q	Ctrl	ND / ND / ND / ND / ND / ND	0/18
S26H E32V K36T S103D	Ctrl	ND / ND / ND / ND / ND / ND	0/18

Of ten entries with the parent sequence, four were seen in most replicates (averages 0.34 to 2.37), three in one and three in none, so single entries are noisy. Background: pairings of all light chain designs with three empty control strains gave a value in 4% of cases (median 2.64, 5th percentile 1.59). Values in that range, when seen in few replicates, are hard to tell from nonspecific mating. Also given: how often the same scFv was detected with the empty control strains, with their mean in brackets. The authors averaged sequences with at least three values out of six and counted those with two or fewer as poor binders.